Experimental data as given in PubChem BioAssay AID1778 (Sanford-Burnham Center for Chemical Genomics, 2009).
This is one part of the list. Results with a measured potency or affinity are listed apart. Activity calls are given as the source filed them. Rule as the data show it: active = inhibition above about 50%; inactive = the rest.

Protein sequences, listed by entry. Tags and fused reporters are not part of them. Lines headed by an entry give the natural chain unless they say otherwise; changes in a name come on top.
UniProt P41145: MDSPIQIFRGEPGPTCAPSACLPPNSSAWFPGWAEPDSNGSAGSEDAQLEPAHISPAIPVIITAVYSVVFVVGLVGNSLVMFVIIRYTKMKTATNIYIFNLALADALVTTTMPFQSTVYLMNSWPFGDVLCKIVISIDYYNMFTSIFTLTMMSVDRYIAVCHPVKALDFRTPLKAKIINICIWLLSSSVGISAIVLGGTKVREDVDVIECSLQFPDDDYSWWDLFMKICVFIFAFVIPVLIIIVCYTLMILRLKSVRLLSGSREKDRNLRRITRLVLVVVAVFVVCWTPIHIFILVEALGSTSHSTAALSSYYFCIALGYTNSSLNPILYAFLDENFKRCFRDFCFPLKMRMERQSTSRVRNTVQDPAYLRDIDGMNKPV

Each molecule was assayed against Kappa-type opioid receptor (Homo sapiens) (UniProt P41145) (assay: KOR antagonists, beta-arrestin recruitment, cell-based, luminescence, uHTS (AID 1778)). Settings: antagonist mode, at 10 µM, active compounds read high.

Row | Structure (SMILES) | inhibition
1 | Cc1nc2ccccc2n1CC(=O)N/N=C/c1cccs1 | inactive: -3.9%
2 | COC(=O)c1ccccc1NC(=O)Cn1cnc2cc(C)c(C)cc21 | inactive: 4.2%
3 | O=[N+]([O-])c1cc([N+](=O)[O-])c(CCNc2ccccc2)c([N+](=O)[O-])c1 | inactive: 23.3%
4 | CCc1nc2c(n1)c1c(non1O)c1c2no[n+]1[O-] | inactive: 5.4%
5 | Cc1csc2ncnc(NC3CCN(Cc4ccccc4)CC3)c12 | inactive: -20.3%
6 | Cn1c(=O)[nH]c(=O)c2c1nc(CN1CCN(Cc3ccccc3)CC1)n2CC(N)=O | inactive: 9.9%
7 | Cc1ccc(OCC(O)Cn2c(=N)n(CCN3CCOCC3)c3ccccc32)cc1 (stereo not given) | inactive: 4.8%
8 | COC(=O)c1ccc(NC(=O)Cn2c(-c3nonc3N)nc3ccccc32)cc1 | inactive: 9.4%
9 | N=c1n(CCN2CCCCC2)c2ccccc2n1CC(O)COc1ccccc1 (stereo not given) | inactive: 3.7%
10 | COC(=O)c1sccc1NC(=O)Cn1cnc2c1c(=O)n(C)c(=O)n2C | inactive: 12.6%
11 | N#CCCNC(=O)Cn1c(COc2ccc(Cl)cc2)nc2ccccc21 | inactive: -10.7%
12 | Cn1c(=O)[nH]c(=O)c2c1nc1n2CCN1Cc1ccccc1 | inactive: 0.9%
13 | Cn1ncc([N+](=O)[O-])c1C(=O)Nc1nc2ccccc2n1CCN1CCCCC1 | inactive: 11.5%
14 | CC(=O)N1C2C3N(C(C)=O)C1C1N(C(C)=O)C(C(N1C(C)=O)N3C(C)=O)N2C(C)=O | inactive: -6.6%
15 | CC#CCCC(=O)N1C=Cc2ccccc2C1C#N (stereo not given) | inactive: -4.8%
16 | O=[N+]([O-])c1cccc2n[nH]nc12 | inactive: -1.6%
17 | CCOc1ccccc1OCC(=O)NNC(=O)Cn1cnc2c1c(=O)n(C)c(=O)n2C | inactive: 4.5%
18 | Nc1nonc1-c1nc2ccccc2n1CC(=O)N1CCCCC1 | inactive: 24.9%
19 | Cc1ccc(C)c(CN2CCC(n3nnc4cc(F)ccc43)CC2)c1 | inactive: -46.4%
20 | CC(C)C[C@H](NC(=O)N1CCn2c1nc1ccccc12)C(=O)NC1CCCCC1 | inactive: -15.6%
21 | O=C(Nc1ccc2c(c1)nc1n2CCN(Cc2ccccc2)C1)NC1CCCCC1 | inactive: 24.2%
22 | COc1ccc(/C([O-])=C(/C(=S)Nc2ccc(C)c(C)c2)n2c[n+](C)c3ccccc32)cc1OC | inactive: -10.9%
23 | CCN(/C(=N/P(=O)(N1CCOCC1)N1CCOCC1)N1CCOCC1)c1ccc(OC)cc1 | inactive: 2.2%

Row | Structure (SMILES) | inhibition
24 | CCOC(=O)c1c(NC(=O)Cn2c(C)nc3ccccc32)sc2c1CCC2 | inactive: -10.4%
25 | COc1ccc(N2CCn3c2nc2c3c(=O)n(CCCc3ccccc3)c(=O)n2C)cc1 | inactive: 4.9%
26 | Nc1ccc([As](=O)(O)c2ccc(N)cc2)cc1 | inactive: -4.7%
27 | c1ccc(CCn2nnnc2CN2CCC(n3nnc4ccccc43)CC2)cc1 | inactive: 11.2%
28 | CCC(CC)NC(=O)Cn1c(C(C)NC(C)=O)nc2ccccc21 (stereo not given) | inactive: 15.5%
29 | C[C@H](NC(=O)N1CCn2c1nc1ccccc12)C(=O)NC1CCCCC1 | inactive: 0.8%
30 | FC(F)(F)c1ccc2c(c1)nnn2C1CCN(Cc2nnnn2Cc2ccccc2)CC1 | inactive: 9.4%
31 | COc1ccc2nc(NC(=O)Cn3cnc4c(=O)n(C)c(=O)n(C)c43)sc2c1 | inactive: -25.8%
32 | CCC(=O)Nc1ccc(NC(=S)NC(=O)/C=C/c2ccccc2)cc1 | inactive: -18.4%
33 | Cc1ccc(-c2nnc(N3CCN(C(=O)Cn4c(=O)n(C)c5ccccc54)CC3)c3ccccc23)cc1 | inactive: -9.5%
34 | CCc1ccc(C(C)NC(=O)Cn2cnc3c(=O)n(C)c(=O)n(C)c32)cc1 (stereo not given) | inactive: 55.6%
35 | Cc1ccc2c(c1)C1CN(C)CCC1N2C(=O)Cn1cnc2c1c(=O)n(C)c(=O)n2C (stereo not given) | inactive: -26.7%
36 | C[N+]1=C2C=CC=CC=C2SC12C([N+](=O)[O-])=CC([N+](=O)[O-])=C[C-]2[N+](=O)[O-] (stereo not given) | active: 101%
37 | O=C1CC(C(=O)Nc2cccc(F)c2)n2c(nc3ccccc32)N1 (stereo not given) | inactive: 24.7%
38 | CC1CCN(C(=O)Oc2c(Cl)cc(Cl)c3cccnc23)CC1 | inactive: 1%
39 | CNC(=O)Cc1nc2ccccc2n1CC(=O)Nc1cc(C)cc(C)c1 | inactive: -9.2%
40 | CCSc1nc2ccccc2n1CC(=O)N1CCCCC1 | inactive: -5%
41 | Cc1nc2ccccc2n1CC(=O)NC1CCCCCC1 | inactive: 6.6%
42 | Cn1c(=O)n(CC(=O)N2CCN(c3nnc(-c4ccccc4)c4ccccc34)CC2)c2ccccc21 | inactive: -21.6%
43 | CCN(CC)CCn1c(NCc2cccc(OC)c2OC)nc2ccccc21 | inactive: -20.4%
44 | NNC(=O)Cn1c(SCc2ccccc2)nc2ccccc21 | inactive: -3.6%
45 | CN1CCC(N(C)c2ncnc3ccc(Br)cc23)CC1 | inactive: 9.5%
46 | Cn1c(=O)c2c(ncn2CC(=O)N2CCN(c3ccc([N+](=O)[O-])cc3)CC2)n(C)c1=O | inactive: 2.8%

Row | Structure (SMILES) | inhibition
47 | CCc1nc2ccccc2n1CC(=O)N(C(C)CC)C1CCS(=O)(=O)C1 (stereo not given) | inactive: -13.2%
48 | CN(C)C(=O)OCCc1n(C)cc[n+]1C | inactive: -30.1%
49 | O=[N+]([O-])c1ccccc1NC1CCN(Cc2ccccc2)CC1 | inactive: -4.9%
50 | Cc1ccc2c(c1)C1CN(C)CCC1N2C(=O)Nc1ccc(Cl)cc1 (stereo not given) | inactive: 2.1%
51 | Cc1ccc2c(c1)C1CN(C)CCC1N2C(=O)c1cccnc1Cl (stereo not given) | inactive: 14.1%
52 | COc1ccc(N2CCn3c2nc2c3c(=O)n(CCc3ccccc3)c(=O)n2C)cc1 | inactive: -32.9%
53 | O=C(Cn1cnc2ccccc21)NCCCN1CCOCC1 | inactive: -2.2%
54 | Cn1c(=O)c2ncn(CC(=O)NC3CCCCCC3)c2n(C)c1=O | inactive: -10.9%
55 | CC(C)[C@H](NC(=O)N1CCn2c1nc1ccccc12)C(=O)NCc1ccc2c(c1)OCO2 | inactive: -17.5%
56 | Cn1c(=O)n(Cc2ccc(Cl)cc2)c(=O)c2c1nc1n2CCN1Cc1ccco1 | inactive: -23.7%
57 | Cn1c(=O)c2c(nc(NCCc3ccccc3)n2CC(=O)NCCc2ccccc2)n(C)c1=O | inactive: 20.8%
58 | Cc1cc(NC(=O)CSc2nc3ccccc3n2CC(=O)N2CCCCC2)no1 | inactive: -1.3%
59 | O=C(CCCN1CCC2(CC1)C(=O)NCN2c1ccccc1)c1ccc(F)cc1 | inactive: -57.6%
60 | Cn1c(=O)c2c(nc(CN3CCN(c4ccc(F)cc4)CC3)n2CCN2CCOCC2)n(C)c1=O | inactive: 16.2%
61 | COc1cc(NC(=O)Cn2c(-c3cncs3)nc3ccccc32)cc(OC)c1OC | inactive: -30.2%
62 | N#CCC(=O)N/N=C\c1ccccc1OC/C=C/c1ccccc1 | inactive: 1.7%
63 | Cc1ccc2c(c1)C1CN(C)CCC1N2CC(=O)N(C)c1ccccc1 (stereo not given) | inactive: 26.7%
64 | CCOC(=O)Nc1ccc2c(c1)nc1n2CCN(CCOC)C1 | inactive: -34.2%
65 | COc1ccc(Cc2nnc(NC(=O)Cn3cnc4c3c(=O)n(C)c(=O)n4C)s2)cc1 | inactive: -25.4%
66 | CCN(CC)CCn1c(=N)n(CC(O)c2ccco2)c2ccccc21 (stereo not given) | inactive: -5.9%
67 | C=CCc1cccc(CNc2nc3ccccc3n2CCN2CCOCC2)c1O | inactive: 23.5%
68 | Cn1c(=O)[nH]c(=O)c2c1nc(CN1CCN(c3ccccc3F)CC1)n2CC(N)=O | inactive: 28.6%
69 | Cc1nc2cc(C(F)(F)F)ccc2n1C1CCN(Cc2nnnn2Cc2ccc3c(c2)OCO3)CC1 | inactive: -138%

Row | Structure (SMILES) | inhibition
70 | Cn1c(=O)[nH]c(=O)c2c1nc(NC1CCCCC1)n2CC(=O)NC1CCCCC1 | inactive: 29.9%
71 | CC1CN(Cc2nc3c(c(=O)[nH]c(=O)n3C)n2CC(N)=O)CC(C)O1 (stereo not given) | inactive: -0.7%
72 | Cc1ccc(CNC(=O)CCNC(=O)N2CCn3c2nc2ccccc23)cc1 | inactive: -40.7%
73 | COc1ccc(CNc2nc3ccccc3n2CCN2CCCCC2)c(OC)c1 | inactive: 28.8%
74 | c1ccc(CN2CCC3(CC2)Nc2ccccc2S3)cc1 | inactive: 18%
75 | COc1ccc(N2CCn3c2nc2c3c(=O)n(CCCc3ccccc3)c(=O)n2C)c(OC)c1 | inactive: -25.9%
76 | COc1ccccc1CNc1nc2ccccc2n1CCN1CCCCC1 | inactive: -14.8%
77 | CCSc1nnc(NC(=O)Cn2cnc3c2c(=O)n(C)c(=O)n3C)s1 | inactive: -29.1%
78 | COc1ccc(CNC(=O)Cn2cnc3c(=O)n(C)c(=O)n(C)c32)cc1 | inactive: -86.9%
79 | Cc1ccc2c(c1)[C@@H]1CN(C)CC[C@@H]1N2S(=O)(=O)c1ccc(F)cc1 | inactive: -14.8%
80 | O=C(Nc1cc([As](=O)(O)O)ccc1O)c1ccccc1 | inactive: 4.9%
81 | Cn1c(=O)n(CC(=O)Nc2ccccc2)c2ccccc21 | inactive: -4.3%
82 | O=C(c1ccco1)N1CCn2c1nc1ccccc12 | inactive: -2.3%
83 | COc1ccc(Cc2nc3ccccc3n2CC(=O)N/N=C/c2ccccc2)cc1OC | inactive: 47.1%
84 | CC(C)(C)NC(=O)Cn1c(SCC(=O)N2CCCCCC2)nc2ccccc21 | inactive: 8.4%
85 | CSCC[C@H](NC(=O)N1CCn2c1nc1ccccc12)C(=O)NCc1ccco1 | inactive: -25.9%
86 | Cc1ccc2c(c1)C1CN(C)CCC1N2C(=O)Nc1cccc(C(F)(F)F)c1 (stereo not given) | inactive: -33.4%
87 | O=[N+]([O-])c1cc(C(F)(F)F)ccc1NC1CCN(Cc2ccccc2)CC1 | inactive: 9.9%
88 | CC(C)C[C@H](NC(=O)N1CCn2c1nc1ccccc12)C(=O)NCC1CCCO1 (stereo not given in full) | inactive: -41.1%
89 | O=[N+]([O-])c1ncn(CCn2ncnc2[N+](=O)[O-])n1 | inactive: 6.2%
90 | CCCn1c(=O)[nH]c(=O)c2c1nc(-c1ccc(OC(F)F)cc1)n2CCN1CCOCC1 | inactive: -21.6%
